From ChEMBL document CHEMBL1127594, “Inhibitors of acyl-CoA:cholesterol O-acyltransferase. 11. Structure-activity relationships of several series of compounds derived from N-(chlorocarbonyl) isocyanate” (J Med Chem, 1994) come the findings set out here.

Amino acid sequences for entries named in this document (tags omitted). Residues count along the entry.
UniProt G1SFD9, 1-524: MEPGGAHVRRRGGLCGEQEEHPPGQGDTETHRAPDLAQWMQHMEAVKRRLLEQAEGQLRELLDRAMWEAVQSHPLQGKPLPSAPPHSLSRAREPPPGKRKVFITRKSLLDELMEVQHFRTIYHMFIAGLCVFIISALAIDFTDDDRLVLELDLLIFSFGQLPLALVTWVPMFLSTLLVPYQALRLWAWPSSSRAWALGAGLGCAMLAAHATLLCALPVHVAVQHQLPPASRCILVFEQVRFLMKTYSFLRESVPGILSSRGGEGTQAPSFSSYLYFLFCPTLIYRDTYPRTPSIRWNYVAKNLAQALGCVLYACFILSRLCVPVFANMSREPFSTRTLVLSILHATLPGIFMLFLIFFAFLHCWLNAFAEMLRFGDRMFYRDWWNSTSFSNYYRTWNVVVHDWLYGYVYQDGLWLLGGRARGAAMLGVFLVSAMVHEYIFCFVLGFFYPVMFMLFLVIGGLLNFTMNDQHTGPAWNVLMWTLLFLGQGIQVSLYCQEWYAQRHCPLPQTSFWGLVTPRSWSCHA

Structures are written as SMILES.

For this assay, the target named is O-acyltransferase (Oryctolagus cuniculus, UniProt G1SFD9). Put plainly: In vitro Acyl coenzyme A:cholesterol acyltransferase inhibitory activity (IAI) was determined by measuring the incorporation of [1-14C]oleolyl-CoA into cholesterol esters by intestinal microsomes isolated from cholesterol-fed rabbits. On the set-up: species or system Intestine.

A word on the IC50: it is the concentration at which inhibition is half-maximal. Higher therefore signals a need for much substance. The compound `CCCCCCCCCCC(C)OC(=O)NC(=O)Nc1c(C(C)C)cccc1C(C)C` (stereo unspecified) gave an IC50 of 350 nM.
